# Test results published in patent US20140227208A1, “COSMETIC COMPOSITIONS CONTAINING SUBSTITUTED AZOLE AND METHODS FOR ALLEVIATING MECHANICALLY-INDUCED SKIN INFLAMMATION” (The Procter & Gamble Company, priority 2013, published 2014).
# Amino acid sequences for entries named in this document (tags omitted).
# UniProt P08684, whole entry: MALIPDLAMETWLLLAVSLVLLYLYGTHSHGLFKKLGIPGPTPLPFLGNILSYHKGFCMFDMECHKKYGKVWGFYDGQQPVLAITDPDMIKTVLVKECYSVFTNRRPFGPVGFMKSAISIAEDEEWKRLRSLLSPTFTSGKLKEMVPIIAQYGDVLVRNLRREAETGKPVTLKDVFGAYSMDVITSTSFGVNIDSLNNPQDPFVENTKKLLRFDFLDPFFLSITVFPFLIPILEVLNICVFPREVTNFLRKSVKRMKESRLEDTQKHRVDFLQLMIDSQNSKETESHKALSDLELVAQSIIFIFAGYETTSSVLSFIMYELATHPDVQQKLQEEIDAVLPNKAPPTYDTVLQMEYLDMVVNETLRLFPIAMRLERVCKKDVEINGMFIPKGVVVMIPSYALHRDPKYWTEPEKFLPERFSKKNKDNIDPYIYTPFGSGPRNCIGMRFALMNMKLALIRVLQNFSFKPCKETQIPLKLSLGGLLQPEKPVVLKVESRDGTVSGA
# Biological target: CYP3A4 (Homo sapiens, UniProt P08684)
# Assay: In vitro CYP/CYP3A4 inhibition assay (P450-GLO Assay kit, Promega)
smiles,measurement,setting,value
Nc1ncn(Cc2ccccc2)c2ncnc1-2,Hit / no hit for inhibition of CYP3A4,human recombinant CYP3A4,no hit (weak/no inhibition (IC50 value>10 μM))
same,IC50,"read-out: IC50 (uM), CYP3A4 inhibition, human recombinant CYP3A4",> 10 µM
